How the values were obtained:
[1] = test system: engrafted B-CLL mice (CD5/CD19 cells); conditions: after third treatment cycle
Description: (§1) The original Eµ-TCL1a transgenic mice which were generously provided by C. Croce (Ohio) have been back-crossed for > 9 generations to C57BL/6 mice. Mice were killed at stated ages, or when signs of illness developed, and samples for histology, flow cytometry, and miRNA isolation were collected. The tumor load in all lymphoid organs was assessed by flow cytometry following staining for the surface markers CD19, CD5, and IgM. Approval from the Austrian Animal Ethics committee was obtained prior to performing the experiments. Engrafted mice were produced by injecting 3 x 10^6 lymphocytes of a leukemic Eµ-TCL1a transgenic mouse into 30 Black 6 mice from Charles River Laboratories, Sulzfeld, Germany.
First a treatment study included 10 mice.
To assess tumour load development after treatment blood samples were collected from the tail vein (Fig. 4).

[2] = test system: engrafted CLL mice (CD5/CD19 cells); experiment: Treatment study 02: reduced actinomycin D concentrations in murine B-CLL model; assay type: in vivo; conditions: after three rounds of treatment
Description: as §1
In example 1 a treatment schedule of 0.06 mg/kg daily for two weeks was used. […] To assess the tumour load blood samples were consecutively taken from the tail vein.

`Cc1c2oc3c(C)ccc(C(=O)N[C@@H]4C(=O)N[C@H](C(C)C)C(=O)N5CCC[C@H]5C(=O)N(C)CC(=O)N(C)[C@@H](C(C)C)C(=O)O[C@@H]4C)c3nc-2c(C(=O)N[C@@H]2C(=O)N[C@H](C(C)C)C(=O)N3CCC[C@H]3C(=O)N(C)CC(=O)N(C)[C@@H](C(C)C)C(=O)O[C@@H]2C)c(N)c1=O` [actinomycin D] was tested, and the resistance development [1] was “no development of resistance” and the resistance development [2] was “no resistance development could be observed”.
